Source: patent publication US20250109343A1, “CORROSION INHIBITOR” (INNOSPEC LIMITED, priority 2022, published 2025)

Assay: Linear Polarisation Resistance (LPR) Test, Example 30, synthetic brine composition 1 or 2
Details: dose 40 ppm of product, one addition, time 19.9-20.1 hr, 60° C., constant CO2 sparge

In the case of “dodecenyl succinic acid mono triethanolamine salt”, the Corrosion protection is reported as 99% and the Corrosion rate is reported as 0.03 mmpy.
